Results published in patent publication US9868772B2 (INDIANA UNIVERSITY RESEARCH AND TECHNOLOGY CORPORATION, priority 2012, dated 2018).

Sequences of proteins named here, by UniProt entry; tags and fusion partners are left off. Residues count along the entry.
UniProt P43220, 24-463: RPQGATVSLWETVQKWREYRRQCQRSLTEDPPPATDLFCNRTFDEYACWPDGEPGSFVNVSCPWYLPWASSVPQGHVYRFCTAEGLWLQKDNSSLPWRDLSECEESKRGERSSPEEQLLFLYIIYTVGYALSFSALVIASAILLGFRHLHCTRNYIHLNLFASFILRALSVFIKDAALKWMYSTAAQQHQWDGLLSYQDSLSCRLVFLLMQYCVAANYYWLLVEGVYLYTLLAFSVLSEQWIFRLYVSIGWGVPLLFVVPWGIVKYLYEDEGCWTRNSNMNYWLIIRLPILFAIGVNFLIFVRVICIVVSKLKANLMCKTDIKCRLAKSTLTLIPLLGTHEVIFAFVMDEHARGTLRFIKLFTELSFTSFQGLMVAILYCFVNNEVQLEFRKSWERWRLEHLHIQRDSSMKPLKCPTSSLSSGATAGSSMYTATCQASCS

Target: T1, GLP-1 receptor (Homo sapiens, UniProt P43220)
T1 construct: expressed in transfected cells; host or cells: HEK293
Assay: cAMP induction, firefly luciferase reporter assay in HEK293 cells co-transfected with receptor
Assay type: cell-based
Protocol: The ability of glucagon analogs to induce cAMP was measured in a firefly luciferase-based reporter assay. […] At the end of the incubation 100 microliters of LucLite luminescence substrate reagent (Perkin-Elmer, Wellesley, Mass.) were added to each well. […] Effective 50% concentrations were calculated by using Origin software (OriginLab, Northampton, Mass.

`CCCCCCCCCCCCCCCC(=O)N[C@@H](CCC(=O)NCCCC[C@H](NC(=O)[C@H](CC(=O)O)NC(=O)[C@H](CO)NC(=O)[C@@H](NC(=O)[C@H](Cc1ccccc1)NC(=O)[C@@H](NC(=O)CNC(=O)[C@H](CCC(N)=O)NC(=O)[C@H](C)NC(=O)[C@H](N)Cc1cccs1)[C@@H](C)O)[C@@H](C)O)C(=O)N[C@@H](CO)C(=O)N[C@@H](CCCCN)C(=O)N[C@@H](Cc1ccc(O)cc1)C(=O)N[C@@H](CC(C)C)C(=O)N[C@@H](CC(=O)O)C(=O)N[C@@H](CCC(=O)O)C(=O)N[C@@H](CCCNC(=N)N)C(=O)N[C@@H](C)C(=O)N[C@@H](C)C(=O)N[C@@H](CCC(N)=O)C(=O)N[C@@H](CC(=O)O)C(=O)N[C@@H](Cc1ccccc1)C(=O)N[C@H](C(=O)N[C@@H](CCC(N)=O)C(=O)N[C@@H](Cc1c[nH]c2ccccc12)C(=O)N[C@@H](CC(C)C)C(=O)N[C@@H](CC(C)C)C(=O)N[C@@H](CCC(=O)O)C(=O)NCC(=O)NCC(=O)N1CCC[C@H]1C(=O)N[C@@H](CO)C(=O)N[C@@H](CO)C(=O)NCC(=O)N[C@@H](C)C(=O)N1CCC[C@H]1C(=O)N1CCC[C@H]1C(=O)N1CCC[C@H]1C(=O)N[C@@H](CO)C(N)=O)C(C)C)C(=O)O` [compound 18] gave an EC50 of 8 pM.
